Our source for the activity change, negative = inhibition values is PubChem BioAssay AID624170 (National Center for Advancing Translational Sciences (NCATS), 2012).

Chains of the proteins cited; added tags and fusions are not shown.
UniProt O94925, whole entry: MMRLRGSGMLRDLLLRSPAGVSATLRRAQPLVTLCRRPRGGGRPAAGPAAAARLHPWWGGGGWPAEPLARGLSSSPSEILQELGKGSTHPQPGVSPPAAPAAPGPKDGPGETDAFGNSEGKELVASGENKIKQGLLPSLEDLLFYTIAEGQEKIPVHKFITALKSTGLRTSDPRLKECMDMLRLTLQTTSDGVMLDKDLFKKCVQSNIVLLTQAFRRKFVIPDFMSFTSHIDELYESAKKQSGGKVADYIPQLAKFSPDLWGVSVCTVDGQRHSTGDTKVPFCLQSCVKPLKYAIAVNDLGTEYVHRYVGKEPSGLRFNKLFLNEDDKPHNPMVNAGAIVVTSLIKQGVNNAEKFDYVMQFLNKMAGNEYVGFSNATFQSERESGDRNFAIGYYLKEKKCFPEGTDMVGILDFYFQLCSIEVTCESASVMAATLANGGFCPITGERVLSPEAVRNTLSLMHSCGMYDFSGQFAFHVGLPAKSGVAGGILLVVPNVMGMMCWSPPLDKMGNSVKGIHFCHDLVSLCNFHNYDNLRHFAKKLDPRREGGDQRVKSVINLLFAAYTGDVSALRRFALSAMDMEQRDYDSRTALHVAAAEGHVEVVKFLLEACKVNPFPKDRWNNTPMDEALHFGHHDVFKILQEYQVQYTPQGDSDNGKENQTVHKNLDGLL

In the experiment the target is Glutaminase kidney isoform, mitochondrial (Homo sapiens) (UniProt O94925). The experiment is described as follows: qHTS for Inhibitors of Glutaminase (GLS). Conditions: GLS enzymatic activity, qHTS titration.

The list shows a part of the results, in another mix than the full data. Results filed as inconclusive are left out. Activity calls are given as the source filed them. Calls come from the whole dose curve; as a rule, active = well fitted inhibition curve with a large enough effect; inconclusive = small, poorly fitted or top-dose-only effect, or another doubt; inactive = no such curve, though single readings can be large or run the other way.
% is set by controls: 0 for no effect and ±100 for the full control effect.

With `CCC(=O)N(c1ccccc1)C1(COC)CCN(CCc2cccs2)CC1`, the activity change, negative = inhibition reads like this: (at 45.5 µM (top of the series)) inactive: -1.45%; (at 99.4 µM (top of the series)) inactive: 8.41%. Take `CN(CCCl)CCCl`: the activity change, negative = inhibition (at 45.5 µM (top of the series)) is inactive: 6.33%.
